# Membrane permeability of cyclic peptides

Source: CycPeptMPDB (Li et al. 2023), which took these values from Townsend et al. 2020, doi:10.26434/chemrxiv.13335941.v1.

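Conditions beyond the assay type are not listed; see the original paper. Other peptides of the study may be missing here. Entries at the database's floor value (log10 P of -10) are not listed.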

PAMPA is the parallel artificial membrane permeability assay, which has no cells and reads passive diffusion.
Values are log10 P with P in cm/s, so -5 is more permeable than -7.

| compound | PAMPA (log10 cm/s) |
|---|---|
| CC(C)C[C@@H]1NC(=O)C[C@H](Cc2ccccc2)NC(=O)[C@@H]2CCCN2C(=O)[C@H](Cc2ccccc2)NC(=O)[C@@H](CC(C)C)N(C)C(=O)[C@H]2CCCN2C(=O)[C@@H](CC(C)C)NC1=O | -5.12 |
| CC(C)C[C@@H]1NC(=O)[C@@H](C)NC(=O)[C@H](Cc2ccccc2)NC(=O)[C@@H](CC(C)C)NC(=O)[C@H]2CCCN2C(=O)[C@H](CC(C)C)NC1=O | -6.34 |
| CCCN1CC(=O)N[C@@H](CC(C)C)C(=O)N(C)[C@@H](CC(C)C)C(=O)N2CCC[C@@H]2C(=O)N[C@H](CC(C)C)C(=O)N[C@@H](Cc2ccccc2)C(=O)N2CCC[C@@H]2C1=O | -5.51 |
| CCCN1CC(=O)N(C)[C@H](CC(C)C)C(=O)N[C@H](CC(C)C)C(=O)N2CCC[C@H]2C(=O)N[C@H](CC(C)C)C(=O)N[C@@H](Cc2ccccc2)C(=O)N2CCC[C@H]2C1=O | -5.84 |
| CC(C)C[C@@H]1NC(=O)C[C@H](Cc2ccccc2)NC(=O)[C@H](Cc2ccccc2)NC(=O)[C@H](CC(C)C)NC(=O)[C@H]2CCCN2C(=O)[C@H](CC(C)C)NC1=O | -5.14 |
| CC(C)C[C@@H]1NC(=O)[C@H]2CCCN2C(=O)CN(Cc2ccccc2)C(=O)[C@H](CC(C)C)N(C)C(=O)[C@@H](C)NC(=O)[C@H](Cc2ccccc2)NC1=O | -6.49 |
| CC(C)C[C@@H]1NC(=O)[C@@H](C)N(C)C(=O)[C@@H]2CCCN2C(=O)[C@H](Cc2ccccc2)NC(=O)[C@H](CC(C)C)N(C)C(=O)[C@@H]2CCCN2C(=O)[C@@H](CC(C)C)NC1=O | -5.32 |
| CCCN1CC(=O)N[C@H](CC(C)C)C(=O)N(C)[C@H](CC(C)C)C(=O)N2CCC[C@H]2C(=O)N[C@@H](CC(C)C)C(=O)N[C@@H](Cc2ccccc2)C(=O)N2CCC[C@H]2C1=O | -5.58 |
| CCCN1CC(=O)N[C@@H](CC(C)C)C(=O)N[C@H](CC(C)C)C(=O)N2CCC[C@H]2C(=O)N(C)[C@H](CC(C)C)C(=O)N[C@@H](Cc2ccccc2)C1=O | -4.93 |
| CC(C)C[C@@H]1NC(=O)[C@@H](CC(C)C)NC(=O)[C@H](C)N(C)C(=O)[C@@H]2CCCN2C(=O)[C@H](Cc2ccccc2)NC(=O)[C@@H](CC(C)C)N(C)C(=O)[C@H]2CCCN2C1=O | -5.24 |
| CC(C)C[C@@H]1NC(=O)[C@H](C)NC(=O)[C@@H]2CCCN2C(=O)[C@H](Cc2ccccc2)NC(=O)[C@H](CC(C)C)N(C)C(=O)[C@@H]2CCCN2C(=O)C[C@H](Cc2ccccc2)NC1=O | -5.86 |
| CC(C)C[C@@H]1NC(=O)[C@H](C)N(C)C(=O)[C@H]2CCCN2C(=O)[C@H](Cc2ccccc2)NC(=O)[C@@H](CC(C)C)N(C)C(=O)[C@@H]2CCCN2C(=O)C[C@H](Cc2ccccc2)NC1=O | -5.61 |
| CC(C)C[C@@H]1NC(=O)[C@H](CC(C)C)N(C)C(=O)C[C@H](Cc2ccccc2)NC(=O)[C@H]2CCCN2C(=O)[C@H](Cc2ccccc2)NC(=O)[C@@H](CC(C)C)N(C)C(=O)[C@H]2CCCN2C1=O | -5.60 |
| CC(C)C[C@@H]1NC(=O)[C@@H](CC(C)C)N(C)C(=O)[C@@H](C)N(C)C(=O)[C@H]2CCCN2C(=O)[C@H](Cc2ccccc2)NC(=O)[C@H](CC(C)C)N(C)C(=O)[C@H]2CCCN2C1=O | -5.78 |

The last 2 entries again:

| compound | PAMPA (log10 cm/s) |
|---|---|
| CC(C)C[C@@H]1NC(=O)[C@H](CC(C)C)N(C)C(=O)C[C@H](Cc2ccccc2)NC(=O)[C@H]2CCCN2C(=O)[C@H](Cc2ccccc2)NC(=O)[C@@H](CC(C)C)N(C)C(=O)[C@H]2CCCN2C1=O | -5.60 |
| CC(C)C[C@@H]1NC(=O)[C@@H](CC(C)C)N(C)C(=O)[C@@H](C)N(C)C(=O)[C@H]2CCCN2C(=O)[C@H](Cc2ccccc2)NC(=O)[C@H](CC(C)C)N(C)C(=O)[C@H]2CCCN2C1=O | -5.78 |